Experimental data: patent publication US3932650A, “Trans-octahydropyridoindolobenzazepines as central nervous system depressants” (E. I. Du Pont de Nemours & Company, priority 1973, dated 1976)

Legend:
Format in all cases: in vivo
eyelid closure (ptosis) [1] = assay: Ptosis, rat; conditions: po, passive ptosis
TBZ-induced ptosis [2] = assay: Tetrabenazine Antagonism (T.B.Z.A.), mouse; conditions: po, TBZ 40 mg/kg s.c. one hour after compound
taming = assay: Rhesus Monkey Taming Effects; conditions: po
catalepsy [3] = assay: Catalepsy, rat; conditions: po
[4] = test system: conditioned avoidance response; assay: Conditioned Avoidance Response (C.A.R.), rat; conditions: po, block of C.A.R. in 50% of animals, 1, 2, and 4 hours
locomotor activity [5] = assay: Decreased Locomotor Activity (L.M.A.), rat; conditions: po, minimal effective dose
[6] = test system: conditioned avoidance response; assay: Dog Conditioned Avoidance Response (C.A.R.); conditions: po, 5 or more incorrect responses in 50% of animals, 1, 2, and 4 hours
catalepsy [7] = assay: Catalepsy, mouse; conditions: po
TBZ-induced ptosis [8] = assay: Tetrabenazine Antagonism (T.B.Z.A.), rat; conditions: po, TBZ 40 mg/kg s.c. one hour after compound
[9] = test system: conditioned avoidance response; assay: Conditioned Avoidance Response (C.A.R.), mouse; conditions: po, block of C.A.R. in 50% of animals, 1, 2, and 4 hours
locomotor activity [10] = assay: Decreased Locomotor Activity (L.M.A.), mouse; conditions: po, minimal effective dose
eyelid closure (ptosis) [11] = assay: Ptosis, mouse; conditions: po, passive ptosis
[12] = test system: fear / feeding in approach-avoidance conflict; assay: Rat Conflict (Approach-Avoidance) Test; conditions: po, after 1 or 2 hours
[13] = test system: phenyl-p-benzoquinone-induced writhing; assay: Phenylquinone Writhing (P.Q.W.); conditions: mouse, po; phenyl-p-benzoquinone 2.5 mg/kg i.p. 30 minutes after compound

Row | SMILES | Ptosis MED (eyelid closure (ptosis) [1]) [mg/kg] | T.B.Z.A. ED50 (TBZ-induced ptosis [2]) [mg/kg] | Taming MED (taming) [mg/kg] | Catalepsy MED (catalepsy [3]) [mg/kg] | C.A.R. ED50 [4] | L.M.A. MED (locomotor activity [5]) [mg/kg] | C.A.R. ED50 [6] | Catalepsy MED (catalepsy [7]) [mg/kg] | T.B.Z.A. ED50 (TBZ-induced ptosis [8]) [mg/kg] | C.A.R. ED50 [9] | L.M.A. MED (locomotor activity [10]) [mg/kg] | Ptosis MED (eyelid closure (ptosis) [11]) [mg/kg] | Conflict MED [12] [mg/kg] | P.Q.W. ED50 [13] [mg/kg]
1 | CCN1CC[C@@H]2[C@@H](C1)c1cccc3c1N2c1ccccc1CC3 (relative stereo) | 10 | > 100 | 1 | 10 | ~ 10 mg/kg | 1 | ~ 6 mg/kg | 30 | > 100 | ~ 10 mg/kg | 1 | 10 | > 40 | 0.40
2 | CN1CC[C@@H]2[C@@H](C1)c1cccc3c1N2c1ccccc1CC3 (relative stereo) | 10 | > 100 | 1 | 3 | ~ 10 mg/kg | 1 | ~ 10 mg/kg | 10 | > 100 | ~ 10 mg/kg | 3 | 10 | > 40 | 1.9
3 | Cl.c1ccc2c(c1)CCc1cccc3c1N2[C@@H]1CCN(CC2CCCCC2)C[C@@H]31 (relative stereo) | – | – | – | – | – | – | – | – | – | – | – | – | – | 13
